Test results reported in PMC4853476 (Nature Communications, 2016).

Chains of the proteins cited; added tags and fusions are not shown. A line that says so, or that is headed by a name, gives the form on record, which may keep a tag or linker. Residues count along the entry.
UniProt O75530, 77-441 partner limits assumed: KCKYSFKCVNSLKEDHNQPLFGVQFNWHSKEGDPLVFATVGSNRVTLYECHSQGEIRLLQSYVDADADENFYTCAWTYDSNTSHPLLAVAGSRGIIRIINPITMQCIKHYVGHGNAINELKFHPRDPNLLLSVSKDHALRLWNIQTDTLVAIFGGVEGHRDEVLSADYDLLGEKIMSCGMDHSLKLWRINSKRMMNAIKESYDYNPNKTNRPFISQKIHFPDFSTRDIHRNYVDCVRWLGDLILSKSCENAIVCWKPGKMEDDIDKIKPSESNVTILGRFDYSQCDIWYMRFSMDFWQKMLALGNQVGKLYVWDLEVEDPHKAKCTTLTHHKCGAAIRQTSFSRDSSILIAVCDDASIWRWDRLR
UniProt Q15022, 535-685 partner limits assumed: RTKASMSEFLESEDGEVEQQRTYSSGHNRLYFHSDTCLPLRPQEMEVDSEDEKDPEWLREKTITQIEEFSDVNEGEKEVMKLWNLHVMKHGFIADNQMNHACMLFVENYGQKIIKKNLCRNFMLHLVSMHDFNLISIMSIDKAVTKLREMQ
UniProt Q15910, 421-746 limits assumed, stated change not applied: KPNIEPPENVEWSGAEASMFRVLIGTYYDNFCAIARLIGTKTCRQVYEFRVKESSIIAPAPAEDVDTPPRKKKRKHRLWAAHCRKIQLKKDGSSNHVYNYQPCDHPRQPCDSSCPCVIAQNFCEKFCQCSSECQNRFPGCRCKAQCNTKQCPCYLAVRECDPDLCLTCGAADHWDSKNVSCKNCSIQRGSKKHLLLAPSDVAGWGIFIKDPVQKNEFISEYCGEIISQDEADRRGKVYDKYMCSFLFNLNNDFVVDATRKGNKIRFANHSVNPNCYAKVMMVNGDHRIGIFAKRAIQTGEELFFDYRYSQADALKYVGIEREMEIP
UniProt Q15910, with tags, fused parts or gaps DEL183-210 limits assumed: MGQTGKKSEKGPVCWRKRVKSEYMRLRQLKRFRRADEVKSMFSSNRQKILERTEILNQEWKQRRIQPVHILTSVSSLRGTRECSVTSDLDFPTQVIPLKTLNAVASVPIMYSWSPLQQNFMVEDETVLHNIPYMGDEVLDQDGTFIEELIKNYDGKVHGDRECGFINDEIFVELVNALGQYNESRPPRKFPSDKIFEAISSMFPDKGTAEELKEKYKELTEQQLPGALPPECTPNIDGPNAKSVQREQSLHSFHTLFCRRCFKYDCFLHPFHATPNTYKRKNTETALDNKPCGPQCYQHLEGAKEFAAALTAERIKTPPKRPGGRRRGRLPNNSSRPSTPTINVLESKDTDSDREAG

Target: human PRC2 complex (Homo sapiens, UniProt O75530+Q15022+Q15910, DEL183-210)
Test: Fluorescence anisotropy displacement titrations with unlabelled peptides
Assay type: binding
Parameters: containing EZH2 (residues 421–746) and SUZ12 (residues 535–685), each with an N-terminal GST tag; contained EED (residues 77–441) and EZH2 (residues 1–385); GST (PreScission 3C site) (N, cleaved yes); His-tag (thrombin site) (N, cleaved yes); made in house; host or cells: Escherichia coli BL21 (λDE3)
Conditions: presence of SAM; versus H3K27M

SMILES: CSCC[C@H](NC(=O)[C@H](C)NC(=O)[C@H](C)NC(=O)[C@H](C)NC(=O)[C@H](CCCCN)NC(=O)[C@@H](N)[C@@H](C)O)C(=O)N[C@@H](CO)C(=O)N[C@@H](C)C(=O)N1CCC[C@H]1C(=O)N[C@@H](C)C(=O)N[C@H](C(=O)NCC(=O)NCC(=O)N[C@H](C(=O)N[C@@H](CCCCN)C(=O)N[C@@H](CCCCN)C(=O)N1CCC[C@H]1C(=O)N[C@@H](Cc1c[nH]cn1)C(=O)N[C@@H](CCCNC(=N)N)C(=O)N[C@@H](Cc1ccc(O)cc1)C(=O)N[C@@H](CCCNC(=N)N)C(=O)O)C(C)C)[C@@H](C)O [H3R26AK27M]
- fold weaker binding when Arg26 is substituted with Ala: 22 fold
